In PubChem BioAssay (Tox21):
The entries are a selection whose mix differs from that of the whole data set. Results filed as inconclusive are left out. Entries that show only a call come without a potency. Some structures have more than one record in an assay (separate samples or runs), and their calls can disagree. The source made the active and inactive calls. Calls come from the whole dose curve; as a rule, active = well fitted activation curve with a large enough effect in the signal ratio in the repeat runs (not every such curve was filed as active); inconclusive = weak or mixed curves; inactive = flat fitted curve, though single readings scatter; the % refers to the signal ratio.
Potency is the fitted concentration of half-maximal effect.

Assay: p53 small molecule agonists, cell-based qHTS assay (AID 1963582)
Details: HCT-116 p53RE-bla reporter, beta-lactamase FRET ratio, 16 h; series mostly up to 66 µM
Source text: National Center for Advancing Translational Sciences [NCATS]
Division of Preclinical Innovation [DPI]
U.S. Environmental Protection Agency [EPA]
National Institutes of Environmental Health Sciences [NIEHS]
National Toxicology Program [NTP]
U.S. Food and Drug Administration [FDA]
p53, a tumor suppressor protein, is activated following cellular insult, including DNA damage and other cellular stresses. The activation of p53 regulates cell fate by inducing DNA repair, cell cycle arrest, apoptosis, or cellular senescence. The activation of p53, therefore, is a good indicator of DNA damage and other cellular stresses. […] The activation of the reporter gene under culture conditions can be detected by fluorescence intensity. This cell line was used to screen the Tox21 10K compound library in a 1536-well plate format and to identify agonists that activate the p53 signaling pathway.
Tox21 Assay Protocol Summary:
The p53RE-bla cells were dispensed at 4,000 cells/5 ul/well in 1536-well black wall/clear bottom plates using a Multidrop dispenser. After the assay plates were incubated at a 37 C/5% CO2 incubator for 5 hours, 23 nL of compounds dissolved in DMSO, positive controls or DMSO only was transferred to the assay plate by a pin tool. The plates were incubated at 37 C for 16 hours. After 1 uL of LiveBLAzerTM B/G FRET substrate was added using a Flying Reagent Dispenser, the plates were incubated at room temperature for 2 hours, and fluorescence intensity was measured by an Envision plate reader.
With `COP(C)(=O)OC` the Potency was “inactive”. In the case of `CC(C)N(CCO)C(C)C`, the Potency was “inactive”. In the case of `Cc1ccc([N+](=O)[O-])cc1[N+](=O)[O-]`, the Potency was “inactive”. For `O=[N+]([O-])c1cccc([N+](=O)[O-])c1`, the Potency was “inactive”. In the case of `OCCSCCO`, the Potency was active: 41.5 µM and inactive. For `N#CBr`, the Potency was “inactive”. With `CCN(CC)CCCl` the Potency was “inactive”. In the case of `CN(C)CCCl`, the Potency was “inactive”. With `Cc1cccc([N+](=O)[O-])c1[N+](=O)[O-]` the Potency was “inactive”. In the case of `CCOP(=O)(CC)Oc1ccc([N+](=O)[O-])cc1` (configuration not stated), the Potency was “inactive”. For `O=[N+]([O-])OCC(CO[N+](=O)[O-])(CO[N+](=O)[O-])CO[N+](=O)[O-]`, the Potency was “inactive”. For `N=C(N)N[N+](=O)[O-]`, the Potency was “inactive”. In the case of `CC(C)OP(C)(=O)OC(C)C`, the Potency was “inactive”. In the case of `C/C1=C2N=C(/C=C3N=C(/C(C)=C4\[N-][C@@](C)([C@@H]5N=C1[C@](C)(CCC(=O)NC[C@@H](C)OP(=O)([O-])O[C@H]1[C@@H](O)[C@@H](n6cnc7cc(C)c(C)cc76)O[C@@H]1CO)[C@H]5CC(N)=O)[C@@](C)(CC(N)=O)[C@@H]4CCC(N)=O)[C@@](C)(CC(N)=O)[C@@H]\3CCC(N)=O)C(C)(C)[C@@H]/2CCC(N)=O.[C-]#N.[Co+3]`, the Potency was “inactive”. In the case of `COc1ccc([N+](=O)[O-])cc1[N+](=O)[O-]`, the Potency was “inactive”. In the case of `CCOP(=O)(CC)OCC`, the Potency was “inactive”. With `Cc1c([N+](=O)[O-])cccc1[N+](=O)[O-]` the Potency was “inactive”.
